scFv variants of Ab-95 (light chain) against a SARS-CoV-2 spike peptide

All variants were tested on one target, the spike HR2 peptide PDVDLGDISGINAS (SARS-CoV-2).

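The starting antibody came from a phage panning campaign against this peptide. Variants in AAYL52 differ from the parent at up to three CDR positions; double and triple changes were sampled at random. The scFvs were displayed on barcoded MATa yeast, the peptide on MATalpha yeast. Pairs that bind mate more often; barcode pairs of the diploids are counted by sequencing. The ratio of observed to expected reads was calibrated, replicate by replicate, on BCL2-family standards whose Kd was known from biolayer interferometry. The assay was run in three technical replicates.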

Parent scFv Ab-95: VH joined to VL by a 15-residue (Gly4Ser)3 linker. Changes lie in the light chain CDRs alone.
VH: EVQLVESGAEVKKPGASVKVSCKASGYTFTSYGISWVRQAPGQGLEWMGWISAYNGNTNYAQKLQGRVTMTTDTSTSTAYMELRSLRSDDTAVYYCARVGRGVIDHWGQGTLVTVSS
VL: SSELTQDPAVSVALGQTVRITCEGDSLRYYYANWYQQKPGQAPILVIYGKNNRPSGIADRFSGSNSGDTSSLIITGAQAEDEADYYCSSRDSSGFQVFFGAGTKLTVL

Variants are written as CDR1, CDR2 and CDR3 of the light chain (limits as in the source). Parent: EGDSLRYYYAN, GKNNRPS, SSRDSSGFQVF.
Values are apparent Kd, the geometric mean of the replicates that gave a signal; lower means stronger binding.
"no signal" means that the variant was in the library but no mating with the target was seen in any replicate; the authors take this as a sign of poor binding, and no number exists.

CDR-L1 | CDR-L2 | CDR-L3 | apparent Kd | detected | control signals
SWDSLRYYYAN | GKNNRPS | SSRDSPGFQVF | 1.6 µM | 1 of 3 | 3 of 9
EGDSLRDYYAN | GKNNRMS | SSRDISGFQVF | 300 nM | 3 of 3 | 5 of 9
EGDSLRYYYAN | GKNNRPS | GFRDSIGFQVF | 700 nM | 3 of 3 | 2 of 9
EGDSLRYYYAN | GKNNRPS | DPRDSSVFQVF | 73 nM | 3 of 3 | 2 of 9
EGDSLRYYYAN | GKNYRPS | SSRDSHGFQVF | 9.3 µM | 2 of 3 | 0 of 9
EGDSLRYYYAN | GKNNRKS | SSRDSSKFQVF | 11 µM | 1 of 3 | 0 of 9
EGDSLRYYYAN | GKNNRPS | SSRDMKGFQVV | no signal | 0 of 3 | 2 of 9
EGDSLRYIYAN | GKNNRPS | SVRDSSGFQVF | 310 nM | 3 of 3 | 2 of 9
EGDSLRYYYAN | GKNCRPS | SYRDSSGFQVF | 90 µM | 2 of 3 | 3 of 9
EGDSLRYYYAN | GTNNRPS | SSRDSSDFQEF | no signal | 0 of 3 | 0 of 9
EGDSLRYHYAN | GFNNRPS | SSRDASGFQVF | 19 nM | 3 of 3 | 6 of 9
EGISLRYYYAN | YKNNRPS | SSRDASGFQVF | 8.1 µM | 2 of 3 | 5 of 9
EGDSLYYYYAN | GKNWRPS | SSRDTSGFQVF | 3.3 µM | 1 of 3 | 3 of 9
EGDSLRYYRAN | GKNNRIS | SSRDLSGFQVF | 14 µM | 3 of 3 | 0 of 9
EGMSLRYYYLN | GKNNRPS | SSDDSSGFQVF | no signal | 0 of 3 | 1 of 9
MGDSLKYYYAN | GKNNRPS | SSRDSSGFQVC | 710 nM | 3 of 3 | 2 of 9
EGNSLRCYYAN | GKNNMPS | SSRDSSGFQVF | 15 µM | 2 of 3 | 2 of 9
VGDSLRYYYAN | GKNNRPS | SSRESSGFQVF | 230 nM | 3 of 3 | 3 of 9
EGDSYAYYYAN | GKNNRPS | SSRDSSWFQVF | 12 µM | 3 of 3 | 3 of 9
EGDGVRYMYAN | GKNNRPS | SSRDSSGFQVF | 4.6 µM | 3 of 3 | 3 of 9
EGDSLRYYGAN | GDNNRPS | SSRDSSGFHVF | 16 nM | 3 of 3 | 3 of 9
EGDSLRYYYTR | GKNNRPY | SSRDSSGFQVF | 11 µM | 3 of 3 | 4 of 9
EGCSLRYYCAN | GKNNRPS | STRDSSGFQVF | 2.0 µM | 3 of 3 | 6 of 9
EGDSLRYYYAN | GFNNSPS | SSRDSSGFQVG | 4.6 µM | 2 of 3 | 3 of 9
EYDSLRYYYAC | LKNNRPS | SSRDSSGFQVF | 5.7 µM | 2 of 3 | 5 of 9
EGDSLRYYYAN | GKNNDPS | SYRDSIGFQVF | no signal | 0 of 3 | 0 of 9
EGDSLRYYYWN | GKNNRPS | VSRDSSGFQVD | 69 µM | 2 of 3 | 3 of 9
EGDSLRYYYQN | GINNAPS | SSRDSSGFQVF | 2.9 µM | 2 of 3 | 2 of 9
EGDSLRYYYAN | MKNNRPS | SSRDSSGIQVF | no signal | 0 of 3 | 4 of 9
EGKSLNYYYAI | GKNNRPS | SSRDSSGFQVF | 5.9 µM | 1 of 3 | 1 of 9
EFDSLRYYYAN | GKNNRPS | SSRSSSGFCVF | 4.2 µM | 3 of 3 | 4 of 9
EGDSLRYYYAN | GKNVRIL | SSRDSSGFQVF | no signal | 0 of 3 | 0 of 9
EGDSLRYYEAN | GKNNRVS | SSRDMSGFQVF | 31 nM | 3 of 3 | 2 of 9

Second part, the sequence after the result:

apparent Kd | detected | control signals | CDR-L1 | CDR-L2 | CDR-L3
62 nM | 3 of 3 | 2 of 9 | EGDSLRYYTAN | GKNNRPS | SSRDKSGFQVS
11 µM | 2 of 3 | 5 of 9 | EGDSLRYYYNN | GKNGRPS | SSRDSSGWQVF
4.4 µM | 1 of 3 | 0 of 9 | KGDSLRYYYAN | LKNNRPS | SSRDSSGFQVF
8.5 µM | 2 of 3 | 1 of 9 | EGDSLRYYYSN | GVNNRPS | SSRDSSGFQVD
2.8 µM | 2 of 3 | 7 of 9 | EGDSARYIYAN | GKNNRPS | SHRDSSGFQVF
220 µM | 1 of 3 | 4 of 9 | EFDSLRYYYAN | GKQNRPS | SSRYSSGFQVF
10 µM | 3 of 3 | 3 of 9 | EIDSLRYYYWN | GKNNRPS | SSRDSSGFQVF
130 nM | 3 of 3 | 2 of 9 | EHDSLRYYDAN | GCNNRPS | SSRDSSGFQVF
490 nM | 3 of 3 | 4 of 9 | EGYSLRYYYAN | GKNNRPS | SSRDSDGDQVF
5.6 µM | 1 of 3 | 6 of 9 | EGDSLRYYYAY | GKNNRPP | SSRDKSGFQVF
83 nM | 3 of 3 | 1 of 9 | EGDSLRYYYAN | GKNNRPF | SFRDSHGFQVF
2.0 µM | 3 of 3 | 4 of 9 | EGDSLRRYYAN | GKNNRPS | SSDDSRGFQVF
350 nM | 3 of 3 | 2 of 9 | EPDSLRYEYAN | GANNRPS | SSRDSSGFQVF
40 µM | 1 of 3 | 1 of 9 | EGDSVRYYYAN | NKNNRPS | SSRDSSGIQVF
1.3 µM | 3 of 3 | 3 of 9 | EGDSLRYYYAN | GKNNRFS | SQGDSSGFQVF
11 µM | 1 of 3 | 5 of 9 | EGDWLRYYYSN | GKNNRPS | SSRDSSDFQVF
62 µM | 1 of 3 | 1 of 9 | EGDSLRYYYDN | GKNNRPQ | SSRDSSGFNVF
330 nM | 3 of 3 | 1 of 9 | EGDSLREYYAN | GPNNRPS | SSRDSSGFQVF
no signal | 0 of 3 | 1 of 9 | EGDSLRYPYAN | GKNNRPS | SSIDSSGFQVK
330 nM | 3 of 3 | 1 of 9 | RGDSLRYYYAN | GKNSRPS | SSRDYSGFQVF
240 nM | 3 of 3 | 4 of 9 | EGDSLRYYYAN | GKNNRPQ | SSRSSGGFQVF
23 µM | 3 of 3 | 2 of 9 | EGDILRYYKAN | GKNNRPS | SSLDSSGFQVF
35 µM | 3 of 3 | 9 of 9 | EGDSLRMYYAN | GKPTRPS | SSRDSSGFQVF
27 µM | 3 of 3 | 5 of 9 | EQDSLQYYYAN | GKNNRPS | SSRDSSGFQFF
1.1 µM | 3 of 3 | 4 of 9 | EGLSLRYYYAN | GKNNRPK | SSRDSSGFQVF
no signal | 0 of 3 | 1 of 9 | EGDSLRYFYAN | GKNNRPS | WSRDSSGFQKF
52 nM | 3 of 3 | 4 of 9 | EGPSLRYLNAN | GKNNRPS | SSRDSSGFQVF
10 µM | 2 of 3 | 5 of 9 | EGDYLGYYYAN | GKNNRPS | GSRDSSGFQVF
720 nM | 2 of 3 | 0 of 9 | EGDSLRYSYAN | GKNNRPS | SSRDSSGSQTF
370 µM | 1 of 3 | 1 of 9 | ENDSLRQYYAN | GKNNRPS | ISRDSSGFQVF
no signal | 0 of 3 | 1 of 9 | EGDSLSYYYAN | GKNNRPS | SSRDSSDFQMF
51 µM | 1 of 3 | 0 of 9 | EGDSLRYYGAN | GKNIRPS | SSRDSSGFQVK
3.9 µM | 1 of 3 | 2 of 9 | EFDSLRYYYAY | GKNNRPS | SSRDSSGFQVG
1.6 µM | 3 of 3 | 3 of 9 | EGDSLIYYYAN | GKNNRPS | SSRDSEGFMVF

The 7 strongest on average among those seen in every replicate, once more:

CDR-L1	CDR-L2	CDR-L3	apparent Kd	detected	control signals
EGDSLRYYGAN	GDNNRPS	SSRDSSGFHVF	16 nM	3 of 3	3 of 9
EGDSLRYHYAN	GFNNRPS	SSRDASGFQVF	19 nM	3 of 3	6 of 9
EGDSLRYYEAN	GKNNRVS	SSRDMSGFQVF	31 nM	3 of 3	2 of 9
EGPSLRYLNAN	GKNNRPS	SSRDSSGFQVF	52 nM	3 of 3	4 of 9
EGDSLRYYTAN	GKNNRPS	SSRDKSGFQVS	62 nM	3 of 3	2 of 9
EGDSLRYYYAN	GKNNRPS	DPRDSSVFQVF	73 nM	3 of 3	2 of 9
EGDSLRYYYAN	GKNNRPF	SFRDSHGFQVF	83 nM	3 of 3	1 of 9

Empty control strains, which show no peptide, gave a signal in 28% of pairings with library AAYL52; the median was 8.2 µM and 95% of these signals were weaker than 800 nM. No background was subtracted. For each scFv, signals with the empty controls are counted beside the result.

Source: Engelhart et al. 2022 (doi:10.1038/s41597-022-01779-4), MIT Lincoln Laboratory and A-Alpha Bio; data file from the FLAb repository.